Measured values: patent publication US9540385B2, “Pyrrolopyrimidine compounds as kinase inhibitors” (Pharmacyclics LLC, priority 2012, dated 2017)
pIC50: −log10 of the molar value.

Chains of the proteins cited; added tags and fusions are not shown.
UniProt Q06187, whole entry: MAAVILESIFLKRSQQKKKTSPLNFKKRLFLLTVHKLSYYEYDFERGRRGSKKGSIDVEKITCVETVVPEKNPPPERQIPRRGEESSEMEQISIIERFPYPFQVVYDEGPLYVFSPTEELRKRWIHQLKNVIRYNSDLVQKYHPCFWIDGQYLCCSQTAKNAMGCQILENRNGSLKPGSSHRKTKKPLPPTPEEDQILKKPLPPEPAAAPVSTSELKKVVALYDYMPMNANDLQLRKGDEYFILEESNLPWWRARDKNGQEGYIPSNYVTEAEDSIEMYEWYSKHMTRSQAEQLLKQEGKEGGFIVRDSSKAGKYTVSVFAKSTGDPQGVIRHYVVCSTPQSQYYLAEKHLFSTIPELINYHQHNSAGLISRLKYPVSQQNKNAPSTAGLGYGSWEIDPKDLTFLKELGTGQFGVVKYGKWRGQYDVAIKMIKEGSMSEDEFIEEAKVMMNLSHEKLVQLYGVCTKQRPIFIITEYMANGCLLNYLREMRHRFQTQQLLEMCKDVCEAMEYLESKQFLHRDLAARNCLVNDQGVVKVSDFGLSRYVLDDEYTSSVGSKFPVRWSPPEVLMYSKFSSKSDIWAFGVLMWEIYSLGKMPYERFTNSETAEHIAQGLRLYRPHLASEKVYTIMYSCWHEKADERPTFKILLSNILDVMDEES

target: BTK (Homo sapiens, UniProt Q06187); experiment: Btk in vitro inhibitory activity / inhibition of a panel of kinases (TR-FRET, mobility shift or radiometric filter binding); type: biochemical; details: read-out: BTK IC50; kinase assay by one of methods A, B or C
Procedure: Btk kinase activity is determined using a time-resolved fluorescence resonance energy transfer (TR-FRET) methodology. Measurements are performed in a reaction volume of 50 μL using 96-well assay plates. Kinase enzyme, inhibitor, ATP (at the Km for the kinase), and 1 μM peptide substrate (Biotin-AVLESEEELYSSARQ-NH2) are incubated in a reaction buffer composed of 20 mM Tris, 50 mM NaCl, MgCl2 (5-25 mM depending on the kinase), MnCl2 (0-10 mM), 1 mM DTT, 0.1 mM EDTA, 0.01% bovine serum albumin, 0.005% Tween-20, and 10% DMSO at pH 7.4 for one hour. The reaction is quenched by the addition of 1.2 equivalents of EDTA (relative to divalent cation) in 25 μL of 1× Lance buffer (Perkin-Elmer). Streptavidin-APC (Perkin-Elmer) and Eu-labeled p-Tyr100 antibody (Perkin-Elmer) in 1× Lance buffer are added in a 25 μL volume to give final concentrations of 100 nM and 2.5 nM, respectively, and the mixture is allowed to incubate for one hour. The TR-FRET signal is measured on a multimode plate reader with an excitation wavelength (λEx) of 330 nm and detection wavelengths (λEm) of 615 and 665 nm. Activity is determined by the ratio of the fluorescence at 665 nm to that at 615 nm. For each compound, enzyme activity is measured at various concentrations of compound. Negative control reactions are performed in the absence of inhibitor in replicates of six, and two no-enzyme controls are used to determine baseline fluorescence levels. Inhibition constants, Ki(app), ware obtained using the program BatchKi (Kuzmic et al. (2000), Anal. Biochem. 286:45-50). IC50s are obtained according to the equation: IC50={Ki(app)/(1+[ATP]/Km^ATP)}+[E]total/2;
For all kinases, [ATP]=Km^ATP, [Btk]total=0.5 nM and [Lck]total=6 nM.
Kinase activity is measured in vitro using electrophoretic mobility shift assay. The kinase reactions are assembled in a total volume of 25 μL in 384 well plates. The reactions comprise: BTK enzyme (1 nM, N-terminal His6-tagged, recombinant, full-length, human BTK purified from baculovirus Sf21 insect cell system), inhibitor, ATP ([…] the apparent Km for the kinase), fluorescently labeled peptide substrate (1 μM, FAM-GEEPLYWSFPAKKK-NH2) in a reaction buffer composed of 100 mM HEPES, pH7.5, 5 mM MgCl2 1 mM DTT, 0.1% bovine serum albumin, 0.01% Triton X-100, and 1% DMSO. The reaction is incubated for one hour and is quenched by the addition of 45 μL of termination buffer (100 mM HEPES, pH7.5, 0.01% Triton X-100, 30 mM EDTA). The terminated reactions are analyzed using 12 channel LabChip® 3000 microfluidic detection instrument (Caliper Life Sciences). The enzymatic phosphorylation of the peptide results in a change in net charge, enabling electrophoretic separation of product from substrate peptide. As substrate and product peptides are separated, two peaks of fluorescence are observed. Change in the relative fluorescence intensity of the substrate and product peaks is the parameter measured, reflecting enzyme activity. In the presence of an inhibitor, the ratio between product and substrate is altered: the signal of the product decreases, while the signal of the substrate increases.
Activity in each sample is determined as the product to sum ratio (PSR):P/(S+P), where P is the peak height of the product peptide and S is the peak height of the substrate peptide. For each compound, enzyme activity is measured at various concentrations (12 concentrations of compound spaced by 3× dilution intervals). […] Percent inhibition (Pinh) is determined using following equation: […]

pIC50 | SMILES
> 7.00 | Cc1c(-c2ccc(C(=O)Nc3cc(C(F)(F)F)ccn3)cc2)c2c(N)ncnc2n1[C@@H]1CCN(C(=O)/C=C/CN(C)C2CC2)C1
> 7.00 | Cc1c(-c2ccc(C(=O)Nc3cc(C#N)ccn3)cc2)c2c(N)ncnc2n1[C@@H]1CCN(C(=O)/C=C/CN(C)C2CC2)C1
> 7.00 | CN(C/C=C/C(=O)N1CC[C@@H](n2cc(-c3ccc(C(=O)Nc4cc(C(F)(F)F)ccn4)cc3)c3c(N)ncnc32)C1)C1CC1
> 7.00 | CCCc1ccnc(NC(=O)c2ccc(-c3c(C)n([C@@H]4CCN(C(=O)/C=C/CN(C)C5CC5)C4)c4ncnc(N)c34)cc2)c1
> 7.00 | Cc1ccnc(NC(=O)c2ccc(-c3c(C)n([C@@H]4CCN(C(=O)/C=C/CN(C)C5CC5)C4)c4ncnc(N)c34)cc2)c1
